Experimental data as given in PubChem BioAssay AID504582 (Broad Institute, 2011).
The entries are a selection whose mix differs from that of the whole data set. Some results for these compounds are left out of this collection, so the calls shown say nothing about other tests. The source made the active and inactive calls. No stated cut-off is given here; in the data, active means growth rescue above about 28% (passing the limit was not always enough); inconclusive means no clear call, values can overlap the other calls.

assay: rescue of yeast from PfHsp40 toxicity, primary screen, S. cerevisiae, ATP luminescence (AID 504582);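 further: yeast W303a lacking pdr1 and pdr3 grown in galactose medium; growth measured after three days at 30 °C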; conditions: S. cerevisiae expressing PfHsp40, growth rescue, at 12.5 µM, hits give high values

Compound | growth rescue
O=C(OC1CN2CCC1CC2)C(CO)(c1ccccc1)c1ccccc1 (centres undefined) | inactive: 0.462%
CN(C)c1cccc(C(=O)NCC2(N(C)C)CCCCC2)c1 | inactive: -0.928%
O=C(OCCN1CCCC1)C(O)(c1ccccc1)c1ccccc1 | inactive: -0.802%
CC(C)Oc1ccc(C(=O)NCC2(N(C)C)CCCCC2)cc1 | inactive: -1.14%
COc1ccc(Br)c(C(=O)NCC2(N3CCCCC3)CCCCC2)c1 | inactive: -0.253%
COc1cc(C(=O)NCC2(N(C)C)CCCCC2)c([N+](=O)[O-])cc1OC | inactive: -2.17%
CN(C)C1(CNC(=O)c2ccc(Br)cc2)CCCCC1 | inactive: 3.96%
O=C(NCC1(N2CCCCC2)CCCCC1)c1cccc(Cl)c1 | inactive: -0.819%
COc1ccc(Cl)cc1C(=O)NCC1(N(C)C)CCCCC1 | inactive: -1.96%
COc1cccc(C(=O)NCC2(N3CCCCC3)CCCCC2)c1 | inactive: -0.174%
CN(C)c1ccc(C(=O)NCC2(N(C)C)CCCCC2)cc1 | inactive: 1.76%
CN(C)C1CCCC1OC(=O)C(O)(c1ccccc1)c1ccccc1 (centres undefined) | inactive: -1.57%
Cc1ccccc1C(=O)NCC1(N2CCCCC2)CCCCC1 | inactive: -1.32%
O=C(NCC1(N2CCCCC2)CCCCC1)c1cccc(Br)c1 | inactive: -0.421%
CCN1CCCC(OC(=O)C2(O)c3ccccc3C=Cc3ccccc32)C1 (centres undefined) | inactive: 0.759%
Cc1cc(C(=O)NCC2(N3CCCCC3)CCCCC2)ccc1[N+](=O)[O-] | inactive: -0.88%
COc1ccc(C(=O)NCC2(N(C)C)CCCCC2)cc1 | inactive: 1.69%
O=C(NCC1(N2CCCCC2)CCCCC1)c1cc(F)c(F)cc1Cl | inactive: 1.55%
C=CCN1CCN(CCOC(=O)C(O)(c2ccccc2)c2ccccc2)CC1 | inactive: 0.314%
O=C(NCC1(N2CCCCC2)CCCCC1)c1cc([N+](=O)[O-])ccc1Cl | inactive: -1.49%
Cc1ccc(C(=O)NCC2(N3CCCCC3)CCCCC2)cc1 | inactive: 0.353%
CC(C)N1C(=O)CC2(CCN(CCOC(=O)C(O)(c3ccccc3)c3ccccc3)CC2)C1=O | inactive: -0.411%
COc1cc(SC)ccc1C(=O)NCC1(N(C)C)CCCCC1 | inactive: -0.084%
CCN(CC)CC(C)C(C)OC(=O)C(O)(c1ccccc1)c1ccccc1 (centres undefined) | inactive: 1.56%
